Columns and labels:
CD11a/CD18+CD40 = CD11a/CD18+CD40 (Homo sapiens, UniProt P25942); assay: KinExA solution phase assay, KGYY15 with CD11a/CD18+CD40; type: binding; settings: CD11a/CD18+CD40 vs CD40 alone
CD11b/CD18+CD40 = CD11b/CD18+CD40 (Homo sapiens, UniProt P25942); assay: KinExA solution phase assay, KGYY15 with CD11b/CD18+CD40; type: binding; settings: CD11b/CD18+CD40 vs CD40 alone

The chains behind the UniProt entries cited, without tags or fusion partners. Residues count along the entry.
UniProt P25942, 21-193 limits assumed: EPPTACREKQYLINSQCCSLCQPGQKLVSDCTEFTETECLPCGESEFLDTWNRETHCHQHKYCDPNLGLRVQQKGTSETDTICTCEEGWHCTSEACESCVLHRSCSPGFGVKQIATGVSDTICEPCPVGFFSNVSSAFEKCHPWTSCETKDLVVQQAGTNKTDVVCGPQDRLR

- Kd relative to CD40 alone (times higher) (CD11a/CD18+CD40): 1.5 times
- Kd relative to CD40 alone (times lower) (CD11b/CD18+CD40): 15 times
SMILES: CSCC[C@H](NC(=O)[C@@H](NC(=O)[C@H](Cc1ccc(O)cc1)NC(=O)[C@H](Cc1ccc(O)cc1)NC(=O)CNC(=O)[C@H](CCCCN)NC(=O)[C@H](CCCCN)NC(=O)[C@H](C)NC(=O)[C@H](Cc1c[nH]c2ccccc12)NC(=O)[C@H](CCC(N)=O)NC(=O)[C@H](CC(C)C)NC(=O)[C@@H](N)C(C)C)[C@@H](C)O)C(=O)N[C@@H](CCCCN)C(=O)N[C@@H](CO)C(=O)N[C@@H](CC(N)=O)C(=O)O [KGYY15]

— article PMC10141526 (The Journal of Biological Chemistry, 2023)
